The entries are a selection whose mix differs from that of the whole data set. The source made the active and inactive calls. No stated cut-off is given here; in the data, active means inhibition above about 49%; inactive means the rest.
biological target: Trace amine-associated receptor 1 (Homo sapiens) (UniProt Q96RJ0); assay: human TAAR1 antagonists, retest of hits, confirmation, cell-based, fluorescence (AID 651785); details: TAAR1-expressing cells, fluorescence antagonist read-out; at 3 µM; stronger effect = higher value;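 further: CHO-Ga16 host cells challenged with agonist PEA near its EC80; 0% = agonist at EC80 plus vehicle and 100% = vehicle with no agonist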

Chains of the proteins cited; added tags and fusions are not shown.
UniProt Q96RJ0, whole entry: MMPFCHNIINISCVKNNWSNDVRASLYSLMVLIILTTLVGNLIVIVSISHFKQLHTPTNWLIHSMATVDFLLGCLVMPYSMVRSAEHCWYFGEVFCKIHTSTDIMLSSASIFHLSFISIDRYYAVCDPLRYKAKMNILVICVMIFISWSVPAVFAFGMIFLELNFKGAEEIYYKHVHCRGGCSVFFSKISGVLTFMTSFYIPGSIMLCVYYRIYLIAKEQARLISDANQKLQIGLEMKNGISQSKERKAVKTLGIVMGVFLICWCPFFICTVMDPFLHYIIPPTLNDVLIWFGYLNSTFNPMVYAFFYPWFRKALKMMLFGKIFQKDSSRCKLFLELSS

Structure (SMILES)	inhibition
O=c1[nH]c2ccccc2n1C1CCN(C(c2cccs2)c2nnnn2C2CCCCC2)CC1 (stereo not drawn)	inactive: 45.1%
CCCCn1nnnc1C(c1ccccc1)N1CCC(n2c(=O)[nH]c3ccccc32)CC1 (stereo not drawn)	inactive: 44.7%
O=c1[nH]c2ccccc2n1C1CCN(C(c2cccs2)c2nnnn2C2CCCC2)CC1 (stereo not drawn)	inactive: 43.5%
O=c1[nH]c2ccccc2n1C1CCN(C(c2ccccc2)c2nnnn2C2CCCC2)CC1 (stereo not drawn)	inactive: 30.2%
O=c1[nH]c2ccccc2n1C1CCN(C(c2ccnc3ccccc23)c2nnnn2C2CCCCC2)CC1 (stereo not drawn)	inactive: 45.7%
COc1cccc(C(c2nnnn2C2CCCC2)N2CCC(n3c(=O)[nH]c4ccccc43)CC2)c1OC (stereo not drawn)	inactive: 46.9%
CCCCn1nnnc1C(c1cc2ccccc2o1)N1CCC(n2c(=O)[nH]c3ccccc32)CC1 (stereo not drawn)	inactive: 37.5%
O=c1[nH]c2ccccc2n1C1CCN(C(c2ccccc2)c2nnnn2C2CCCCC2)CC1 (stereo not drawn)	inactive: 47.5%
